# AlphaSeq binding of Ab-14 light chain variants to a spike HR2 peptide

Target peptide (SARS-CoV-2 spike, HR2 region): PDVDLGDISGINAS

The variants keep the heavy chain, the linker and the frameworks of Ab-14 (scFv order VH, a (GGGGS)3 linker, VL).
VH: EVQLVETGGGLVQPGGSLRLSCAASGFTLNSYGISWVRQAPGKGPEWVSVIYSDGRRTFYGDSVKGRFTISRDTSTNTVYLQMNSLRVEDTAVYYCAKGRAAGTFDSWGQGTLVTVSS
VL: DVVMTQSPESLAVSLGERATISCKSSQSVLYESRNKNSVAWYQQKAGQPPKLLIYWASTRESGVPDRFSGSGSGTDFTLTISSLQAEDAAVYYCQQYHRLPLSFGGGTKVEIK

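The parent was found by panning a naive human phage display library on the peptide. AAYL50 was designed without a model: most single CDR substitutions and a random sample of double and triple ones. Affinity was read by AlphaSeq, a pooled yeast mating assay with surface-displayed partners. Mating (16 h, 30 °C) was followed by selection of diploids and sequencing of their barcodes. Read counts were normalised to the haploid input and turned into Kd by a linear fit to BCL2-family pairs of known affinity, for each replicate. The assay was run in three technical replicates.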

Each variant's VL is given in full.
The read-out is the apparent dissociation constant on a log10 scale (nM): the lower, the stronger.
Replicates are averaged; those with no signal do not enter the mean.
Where no diploid with the target was found in that replicate, the entry reads "ND": below detection, most likely a poor binder, though not proof of it.
Three control strains display no target. For library AAYL50, 18% of the pairings with them gave a signal, with a median of 4.19 and one signal in twenty below 2.99, so weak values seen in few replicates may be background. The control count says in how many pairings with the empty strains this scFv gave a signal, with their mean in brackets.

VL	log10 Kd (nM) by replicate	mean log10 Kd (nM)	empty controls
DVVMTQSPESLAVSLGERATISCKSSQSVHYESRAKNSVAWYQQKAGQPPKLLIYWASTRESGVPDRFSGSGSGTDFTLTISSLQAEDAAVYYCQQYHRLPLSFGGGTKVEIK	1.11 / 1.46 / 1.22	1.26	0/9
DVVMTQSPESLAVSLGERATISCKSSQSVLYESRNKNSVAWYQQKAGQPPKLLIYWDSTVESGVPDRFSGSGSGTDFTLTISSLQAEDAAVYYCQQYHRLPLPFGGGTKVEIK	3.29 / 4.21 / 3.17	3.56	3/9 (4.34)
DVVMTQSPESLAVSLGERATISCKSSQSVLYESRNKNSVVWYQQKAGQPPKLLIYWASTRESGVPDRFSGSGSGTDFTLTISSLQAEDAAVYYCCQYHRLPRSFGGGTKVEIK	ND / ND / ND	ND	0/9
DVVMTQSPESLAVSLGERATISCKSSQSVLYESLNKNDVAWYQQKAGQPPKLLIYWACTRESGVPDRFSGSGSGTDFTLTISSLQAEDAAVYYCQQYHRLPLSFGGGTKVEIK	ND / ND / ND	ND	3/9 (4.06)
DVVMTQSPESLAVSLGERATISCYSIQSVLYESRNKNSVAWYQQKAGQPPKLLIYWASTVESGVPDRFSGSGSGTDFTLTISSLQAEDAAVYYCQQYHRLPLSFGGGTKVEIK	ND / ND / ND	ND	2/9 (4.34)
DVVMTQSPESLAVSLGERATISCKSSQSVLVESRPRNSVAWYQQKAGQPPKLLIYWASTRESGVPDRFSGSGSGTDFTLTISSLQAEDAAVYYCQQYHRLPLSFGGGTKVEIK	1.33 / 1.50 / 1.60	1.48	2/9 (4.70)
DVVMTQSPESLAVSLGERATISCKSSQSVLYESRNHNSVAWYQQKAGQPPKLLIYWASTRESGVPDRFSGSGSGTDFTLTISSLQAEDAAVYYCQQYHRLPMGFGGGTKVEIK	1.37 / 1.15 / 1.36	1.29	0/9
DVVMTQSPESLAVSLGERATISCKSSQSVLYEWRNKNSVAWYQQKAGQPPKLLIYWASTRESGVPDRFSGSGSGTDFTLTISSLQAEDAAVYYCQQYHRLALPFGGGTKVEIK	1.95 / 1.80 / 1.91	1.88	3/9 (3.71)
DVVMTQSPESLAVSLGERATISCKSSQSVEYESRNSNCVAWYQQKAGQPPKLLIYWASTRESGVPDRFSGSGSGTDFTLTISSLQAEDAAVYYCQQYHRLPLSFGGGTKVEIK	1.92 / 2.04 / 2.39	2.12	1/9 (3.36)
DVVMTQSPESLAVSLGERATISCYSSQSVLYESRNKNSVAWYQQKAGQPPKLLIYMASTRESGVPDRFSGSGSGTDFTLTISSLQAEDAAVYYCQQEHRLPLSFGGGTKVEIK	ND / ND / ND	ND	0/9
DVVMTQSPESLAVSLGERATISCKSSQSVVYESRNKNSVKWYQQKAGQPPKLLIYWASTRESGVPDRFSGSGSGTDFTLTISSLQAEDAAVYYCQQYHRPPLSFGGGTKVEIK	ND / 4.51 / ND	4.51	1/9 (5.09)
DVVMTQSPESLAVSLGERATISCKSSQSVLYESRNKNSVNWYQQKAGQPPKLLIYWALTAESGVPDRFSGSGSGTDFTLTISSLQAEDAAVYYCQQYHRLPLSFGGGTKVEIK	ND / ND / ND	ND	0/9
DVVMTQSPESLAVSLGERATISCKSSMSVLHESRNKNSVAWYQQKAGQPPKLLIYWASTRESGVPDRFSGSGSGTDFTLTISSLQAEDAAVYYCQQYHRLPLNFGGGTKVEIK	0.84 / 1.06 / 1.14	1.01	1/9 (5.85)
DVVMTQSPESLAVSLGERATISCKSSQSVLYELRNKNSVAWYQQKAGQPPKLLIYWASDRESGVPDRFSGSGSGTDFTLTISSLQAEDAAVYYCQQYIRLPLSFGGGTKVEIK	1.77 / 1.78 / 1.98	1.84	3/9 (4.55)
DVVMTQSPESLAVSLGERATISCKNSQSVLYESRNKNSVHWYQQKAGQPPKLLIYWASTRESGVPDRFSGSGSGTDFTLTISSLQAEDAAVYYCQQYHRLPQSFGGGTKVEIK	ND / ND / 4.11	4.11	2/9 (4.38)

Values reported by Engelhart et al. 2022, doi:10.1038/s41597-022-01779-4 (FLAb copy).